This is a sample that favours compounds with a hit; in the whole collection about 13% have one here.
G9a inh = inhibitors of human histone lysine methyltransferase G9a | Q96KQ7 | G9a H3K9 monomethylation, AlphaScreen, 2 h | Potency, µM (highest dose often 102 µM), for the others: at the top dose activity, negative = inhibition, usual class: inhibitors | 8.8% of 350,000 active | AID 504332; further: potency means the concentration at half of the fitted maximal effect; on the % scale 0 is the no-effect control and ±100 the full control effect; nearly all actives have a fitted effect of over 75% in size
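Chemiluminescent proximity detection of H3K9 monomethylation, read after 10 min bead incubation in the dark. Reaction: 20 nM G9a, 500 nM biotin-H3K9 peptide, 20 uM SAM cofactor, 2 h, room temperature, following 15 min enzyme-compound preincubation.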
JMJD2E inh = JMJD2E (human) inhibition; B2RXH2; JMJD2E catalytic domain, FDH-coupled NADH fluorescence (FDH is formaldehyde dehydrogenase); Potency, µM (highest dose often 57.1 µM), for inactives: top-dose activity change, negative = inhibition, actives largely listed as inhibitors; 1.6% of 230,000 active; active means well fitted inhibition curve with a large enough effect, not every such curve was filed as active; inconclusive means small, poorly fitted or top-dose-only effect, or another doubt; inactive means no such curve, though single readings can be large or run the other way;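 further: potency means the concentration at half of the fitted maximal effect; 0% = wells with enzyme and -100% = buffer wells without enzyme; nearly all actives have a fitted effect of over 50% in size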
miR-21 reporter = miR-21 reporter, rising signal | AID 2288 | HeLa miR-21 FLuc reporter, luciferase, 48 h | 340,000 tested, under 10 active | Potency, µM (doses to about 38.3 µM), for inactives: at the top dose reporter change, positive = more light; active = well fitted rising curve with a large enough effect; inconclusive = small, poorly fitted or top-dose-only effect; inactive = no such curve, though single readings can be large or run the other way;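 note: % of control where 0% means no effect; miR-21 action dims this reporter so a rising signal means less miR-21 action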
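HeLa cells stably expressing CMV-driven firefly luciferase with a downstream miR-21 binding sequence, endogenously expressing miR-21, were treated with titrations (up to about 40uM final) for 48 hours at 37 degree Celsius. Luciferase luminescence was read after lysis.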
ALDH1A1 block = inhibitors of human aldehyde dehydrogenase 1A1 | P00352 | Purified ALDH1A1, NADH fluorescence, propionaldehyde substrate | Potency, µM (top dose mostly 75.3 µM), for inactives: at the top dose activity, negative = inhibition, usual class: inhibitors | 7.3% of 220,000 active | AID 1030; active means well fitted inhibition curve with a large enough effect, not every such curve was filed as active; inconclusive means small, poorly fitted or top-dose-only effect, or another doubt; inactive means no such curve, though single readings can be large or run the other way;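 further: potency means the concentration at half of the fitted maximal effect; plate controls were no enzyme wells and a reference inhibitor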
Sfp inh = qHTS Assay for Inhibitors of Bacillus subtilis Sfp phosphopantetheinyl transferase (PPTase) | 4'-phosphopantetheinyl transferase ffp (Bacillus subtilis), Q9F4F7 | AID 1490, 2009 | actives 3.5% (n = 310,000) | Biochemical Sfp PPTase activity, qHTS | Potency, µM, for inactives: max response, negative = inhibition, most hits filed as inhibitors; active = well fitted inhibition curve with a large enough effect; inconclusive = small, poorly fitted or top-dose-only effect, or another doubt; inactive = no such curve, though single readings can be large or run the other way;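 also: the enzyme is Sfp with the accession as filed and its product quenches rhodamine fluorescence; potency is read from the fitted curve at half-maximal effect; 0% = enzyme reaction without inhibitor and -100% = no enzyme wells; top concentration of the series not given in the record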
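Fluorescence-quenching assay with 15 nM Sfp, 5 uM rhodamine-CoA and 12.5 uM BHQ-2-labelled ybbR peptide in pH 7.6 Hepes/MgCl2 buffer. Enzyme was pre-incubated with compound for 15 min at room temperature. Rate was taken from the 30-min fluorescence change (525/598 nm).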
Lamin A splicing = changes lamin A minigene splicing in HeLa cells. Potency, µM (top dose mostly 46.1 µM), inactives show at the top dose ratio change, negative = inhibition, most hits filed as inhibitors. AID 1487. HeLa LMNA splicing GFP/RFP minigene ratio, 48 h. 0.01% of 200,000 active; active means well fitted inhibition curve with a large enough effect in the signal ratio, with a control signal flat, not every such curve was filed as active; inconclusive means small, poorly fitted or top-dose-only effect, or effect the other way, or a change in a side signal; the % refers to the signal ratio; further: potency means the concentration at half of the fitted maximal effect; on the % scale 0 is the no-effect control and ±100 the full control effect
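Read-out is the ratio of GFP to DsRed2 object intensity, acquired by 488 nm laser-scanning cytometry on HeLa lamin A-EGFP minigene reporter cells. Compound incubation 48 hrs at 37 °C in Opti-MEM with 2% FBS; DMSO 0.5% final.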
Numbers without * were called inactive; ? = inconclusive; · = no result given; [ ] = dose if it differs, or a comment. Unless noted, the call rests on the fitted dose curve; in most records, active means well fitted curve in the direction sought with a large enough effect; inconclusive means small, poorly fitted or top-dose-only effect, or another doubt; inactive means no such curve, though single readings can be large; an effect the other way counts as inactive or inconclusive.

1: O=C(CN1CCCC1)Nc1ccc(Cl)cc1C(=O)c1ccccc1
2: CCCCCn1c(Sc2ccccc2)nc2c1c(=O)[nH]c(=O)n2C
3: COCCn1c(SCc2ccccc2Cl)nc2c1c(=O)[nH]c(=O)n2C
4: C[C@@H]1O[C@@H](O[C@H]2C[C@@H](O)[C@]3(CO)[C@H]4[C@H](O)C[C@]5(C)[C@@H]([C@@H]6COC(=O)C6)CC[C@]5(O)[C@@H]4CC[C@]3(O)C2)[C@H](O)[C@H](O)[C@H]1O
5: CN1C(=O)C(=Cc2ccc(OCCN(C)c3ccccn3)cc2)C(=O)N(C)C1=O
entry no.	1	2	3	4	5
G9a inh	6.31µM*	-8.0%[59 µM]	?	23.4%[12.7 µM]	?
Sfp inh	?	-4.6%	-17.0%	·	-9.2%
JMJD2E inh	?	8.1%	8.2%	3.9%	?
ALDH1A1 block	?	?	14.1µM*	12.2%	7.94µM*
miR-21 reporter	-0.5%	-12.8%	-38.1%	·	-24.0%
Lamin A splicing	?	-0.8%	15.1%	?	8.7%[46 µM]

6: CN1C(=O)C(=Cc2sc(=O)n(-c3ccccc3)c2N(C)C)C(=O)N(C)C1=O
7: CS(=O)(=O)O[C@H]1CN2CCC1CC2
8: C#C[C@]1(O)CC[C@H]2[C@@H]3CCC4=Cc5nc6nc7ccccc7n6cc5C[C@]4(C)[C@H]3CC[C@@]21C
9: C#CC1(O)CCC2C3CCC4=CC(=O)CCC4(C)C3CCC21C (stereo unspecified)
10: NCCc1ccccn1
entry no.	6	7	8	9	10
G9a inh	?	·	25.1µM*	-39.2%[2.33 µM]	-1.9%[59 µM]
Sfp inh	1.8%	·	·	15.8%	-4.9%
JMJD2E inh	-4.3%	·	·	-3.9%	·
ALDH1A1 block	·	-0.8%[13.5 µM]	·	0.3%	6.3%
miR-21 reporter	12.4%	·	·	·	·
Lamin A splicing	·	·	·	·	·

11: Cc1ccc(CN(C)CCc2ccccn2)cc1
12: CN(CCc1ccccn1)Cc1ccc(Cl)cc1
13: Cc1ccc(N2C(=O)NC(=O)C(CCc3ccccn3)(Cc3ccc(F)cc3)C2=O)cc1 (stereo unspecified)
14: CC[C@]1(O)CC[C@H]2[C@@H]3CCC4=CCCC[C@@H]4[C@H]3CC[C@@]21C
15: Cc1cc2ccccc2n1-c1ccc(C(=O)N2CCC(C(=O)NCc3ccc(Cl)cc3)CC2)s1
entry no.	11	12	13	14	15
G9a inh	12.6µM*	10µM*	-0.8%	?	-7.4%[59 µM]
Sfp inh	-9.9%	?	15.1%	6.6%	·
JMJD2E inh	-21.8%	?	-5.2%	·	·
ALDH1A1 block	-5.8%	-3.1%	2.2%	·	·
miR-21 reporter	-4.4%	-3.1%	-1.1%	·	?
Lamin A splicing	-1.3%	-7.9%	14.3%[46 µM]	·	·

Record cards, from the list above. Order of values: G9a inh, Sfp inh, JMJD2E inh, ALDH1A1 block, miR-21 reporter, Lamin A splicing
Results for `Cc1ccc(CN(C)CCc2ccccn2)cc1` : 12.6µM*, -9.9%, -21.8%, -5.8%, -4.4%, -1.3%
Results for `Cc1cc2ccccc2n1-c1ccc(C(=O)N2CCC(C(=O)NCc3ccc(Cl)cc3)CC2)s1` : -7.4%[59 µM], ·, ·, ·, ?, ·
Results for `CC[C@]1(O)CC[C@H]2[C@@H]3CCC4=CCCC[C@@H]4[C@H]3CC[C@@]21C` : ?, 6.6%, ·, ·, ·, ·

(list continues)
16: CCOC(=O)c1c(/N=C/c2c(O)n(-c3ccc(F)cc3)c(=S)[nH]c2=O)sc2c1CCCC2
17: Nc1c2c(nc3sc4c(c13)CCCC4)CCCCC2
18: Nc1nc2c(s1)CCCCCCCCCC2
19: O=C(O)C1Cc2ccccc2N2CCCC12 (stereo unspecified)
20: NC(=O)CF
entry no.	16	17	18	19	20
G9a inh	?	?	44.7µM*	39.8µM*	·
Sfp inh	-3.0%	-16.8%	4.8%	7.5%	10.5%
JMJD2E inh	1.1%	0.3%	4.2%	·	·
ALDH1A1 block	17.8µM*	10.1%	-1.5%	·	·
miR-21 reporter	-4.0%	-56.5%	-4.5%	0.2%	·
Lamin A splicing	-2.3%	-6.9%	·	·	·

21: CC1=C2C(=CO[C@H](C)[C@H]2C)C(=O)C(C(=O)O)=C1O
22: c1cc2n(c1)-c1c(ccc3c1OCO3)CNC2c1ccc2c(c1)OCO2 (stereo unspecified)
23: CNC(C(=O)c1ccccc1)C(OC(C)C)c1ccc(Cl)cc1 (stereo unspecified)
24: CNC(C(=O)c1ccccc1)C(OC)c1ccc(C)cc1 (stereo unspecified)
25: CC(=NCCN1CCCCC1)c1c(O)n(Cc2ccccc2)c(=O)[nH]c1=O
26: CCCCn1c(O)c(C(C)=NCCN2CCCCC2)c(=O)[nH]c1=O
27: C=CCn1c(O)c(C(C)=NCCN2CCCCC2)c(=O)[nH]c1=O
28: O=C(NCc1cccnc1)Nc1ccc([N+](=O)[O-])cc1
entry no.	21	22	23	24	25	26	27	28
G9a inh	·	12.6µM*	1.4%[12.7 µM]	44.7µM*	39.8µM*	28.2µM*	?	10.3%
Sfp inh	-10.3%	-10.0%	7.5%	-21.3%	-7.4%	-9.0%	-13.0%	8.9%
JMJD2E inh	-7.4%	-5.7%	-3.0%	-16.5%	-6.1%	-1.0%	-2.5%	·
ALDH1A1 block	-1.9%	-5.3%	?	?	?	?	?	·
miR-21 reporter	·	4.6%	-2.5%	-29.1%	-4.6%	2.3%	-1.5%	2.6%
Lamin A splicing	·	?	-14.5%	4.0%	6.8%	-2.9%	-2.7%	·

Screens deposited in PubChem by National Center for Advancing Translational Sciences (NCATS).
